Earlier results on one compound are cited in US20220265723A1, “NON-VIRAL MODIFICATION OF MESENCHYMAL STEM CELLS” (NATIONAL UNIVERSITY OF SINGAPORE, priority 2019, published 2022).

For this series, the system named is prodrug-activating enzyme of each system: CA, CD, CPG2, Cyt-450, dCK, HSV-TK, NR, PNP, TP, VZV-TK. The following applies: systems: CA/CPT-11, CD/5-FC, CPG2/CMDA, Cyt-450/CP, IF, dCK/ara-C, HSV-TK/GCV, ACV, NR/CB1954, PNP/6-MePdR, TP/5′-DFUR, VZV-TK/ara-M; read-out: KM (S0.5); cited from earlier work.

SMILES strings stand for the structures.

What is called Km is the concentration of substrate that gives half-maximal velocity. Turning to `Nc1nc(O)c2ncn(COC(CO)CO)c2n1` [GCV, ganciclovir], the Km is 11 to 15.8 µM.
